Laboratory results reported in PMC11602988 (The Journal of Biological Chemistry, 2024).
Changes are numbered by the printed parent chain. Where two headings read alike, the source gives them in different places.

Key:
[1] = molecular target: T1, OCT1 Phe244Ala variant (Homo sapiens, UniProt O15245, F244A); assay: Uptake screening (transport ratio over empty vector), HEK293 cells overexpressing OCT1 Phe244Ala variant; format: cell-based; parameters: expressed in transfected cells;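 note: stably transfected HEK293 cells, intracellular substrate quantified by HPLC-tandem mass spectrometry in cell lysates, uptake in HBSS+ buffer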
T1 sequence (O15245 1-554 F244A): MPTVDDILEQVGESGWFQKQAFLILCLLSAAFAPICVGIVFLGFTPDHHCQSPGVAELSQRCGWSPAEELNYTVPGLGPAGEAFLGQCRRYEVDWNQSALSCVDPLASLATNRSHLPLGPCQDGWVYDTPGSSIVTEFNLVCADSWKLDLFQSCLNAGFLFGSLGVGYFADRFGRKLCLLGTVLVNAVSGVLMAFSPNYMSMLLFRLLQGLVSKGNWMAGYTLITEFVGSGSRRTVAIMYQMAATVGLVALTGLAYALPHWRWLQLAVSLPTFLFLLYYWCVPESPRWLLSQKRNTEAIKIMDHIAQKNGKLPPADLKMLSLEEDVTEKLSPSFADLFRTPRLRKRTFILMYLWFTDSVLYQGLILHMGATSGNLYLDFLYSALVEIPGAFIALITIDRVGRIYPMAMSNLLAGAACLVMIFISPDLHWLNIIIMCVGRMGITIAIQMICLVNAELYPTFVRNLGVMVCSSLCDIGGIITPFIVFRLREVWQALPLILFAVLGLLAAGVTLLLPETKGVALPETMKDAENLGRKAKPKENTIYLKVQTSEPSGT

[2] = molecular target: T2, OCT1 WT (Homo sapiens, UniProt O15245); assay: Uptake screening (transport ratio over empty vector), HEK293 cells overexpressing OCT1 WT; format: cell-based; parameters: expressed in transfected cells;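 note: intracellular substrate levels quantified by HPLC–tandem mass spectrometry after uptake in HBSS+ buffer at 37 °C, stable Flp-In HEK293 lines, fold change versus empty vector–transfected cells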
T2 sequence (O15245 1-554): T1 sequence (O15245 1-554 F244A) with A244F

[3] = molecular target: T1, OCT1 Phe244Ala variant; conditions: cited from earlier work
[4] = Phe244Ala uptake relative to WT
[5] = uptake ratio over empty vector, HEK293 cells overexpressing OCT1 Phe244Ala
[6] = uptake ratio over empty vector, HEK293 cells overexpressing OCT1 WT

Row | Compound | relative_Phe244Ala_uptake_in% [1, 4] [%] | Mean_transport_ratio_Phe244Ala [1, 5] | Mean_transport_ratio_WT [2, 6] | Mean_transport_ratio_Phe244Ala [1] | relative_Phe244Ala_uptake_in% [1] [%] | Mean_transport_ratio_WT [2] | Consequence of the Phe244Ala substitution on transport [3] | relative_Phe244Ala_uptake_in% ([1]; Phe244Ala uptake relative to OCT1 WT) [%]
1 | CCCC(=O)Nc1ccc(OCC(O)CNC(C)C)c(C(C)=O)c1 (stereo not shown) [Acebutolol] | 28.562 | 2.531 | 6.361 | – | – | – | – | –
2 | COc1ccc(CCNC[C@H](O)c2ccc(O)cc2)cc1OC [Denopamine] | 20.746 | 1.545 | 3.628 | – | – | – | – | –
3 | CC(Cc1ccc(O)cc1)NCC(O)c1cc(O)cc(O)c1 (stereo not shown) [Fenoterol] | – | – | – | 31.027 | 221.547 | 14.554 | increased transport rates in a stereoselective manner | –
4 | CC(C)(C)NCC(O)c1cc(O)cc(O)c1 (stereo not shown) [Terbutaline] | – | 10.466 | 7.81 | – | – | – | – | 139.004
